Among the data in PubChem BioAssay AID651787 (The Scripps Research Institute Molecular Screening Center, 2012) are activation values, retold here.

This is a selection; strong and weak results do not stand in their true shares. Calls of active or inactive are those of the source.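 The calls were made as follows: active = activation above the run cutoff, the mean activation over all tested wells plus 3 SD (cut at about 12% in these data); inactive = the rest.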

A short description of the test: nonselective calcium mobilization agonists, CHO-Ga16 cells, counter-screen for hTAAR1 agonist project, cell-based, fluorescence, CHO-Ga16 parental line (AID 651787). The following applies: Fluo-8 calcium fluorescence, at 3 µM, active compounds read high, normalized to maximal ATP response, DMSO zero. In a few lines: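 Test system: CHO-Gα16 parental cells without hTAAR1. Amount: 750 cells in each well. Incubation: 17-24 h seeding, dye 75 min 37 °C, 30 min RT. Measured by: Fluo-8 calcium-dye fluorescence. Evaluation: % activation from peak-to-basal fluorescence ratio, DMSO to ATP scale. Control set: DMSO (0%) and EC100 ATP (100%).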
On the technique in general: Calcium flux is commonly read through the fluorescence of an indicator in the cells.
Regarding `CP(=O)(OC12CC3CC(CC(C3)C1)C2)OC12CC3CC(CC(C3)C1)C2`, the activation is active: 14.7%.
